From patent publication US20160039903A1 (Stanford University, published 2016) come the findings set out here.

Chains of the proteins cited; added tags and fusions are not shown. A line that says so, or that is headed by a name, gives the form on record, which may keep a tag or linker.
human PD-L1 on cells, one chain, as listed by the source limits assumed: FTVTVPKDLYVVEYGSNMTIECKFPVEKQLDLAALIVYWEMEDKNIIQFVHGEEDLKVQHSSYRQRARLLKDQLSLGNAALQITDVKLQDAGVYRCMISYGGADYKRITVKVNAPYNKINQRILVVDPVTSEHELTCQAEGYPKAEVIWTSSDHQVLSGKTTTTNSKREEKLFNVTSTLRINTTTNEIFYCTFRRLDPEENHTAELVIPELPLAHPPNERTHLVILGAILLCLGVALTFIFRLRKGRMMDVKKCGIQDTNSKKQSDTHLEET

Numbering of substitutions follows the chain as printed. Names and notes keep the numbering of the source. Like-named read-outs stand apart in the source and are kept apart here.

Assay [1] has as its target T1, human PD-L1 on cells (human).
T1 construct: also called hPD-L1; PD-L1 on IFNγ-induced SK-MEL-28 (SKMEL28) cells
The experiment in a line: competition flow cytometry on SK-MEL-28 cells, 100 nM PD-1 tetramer as competitor. A general note: A flow cytometer gives signals particle by particle.

Assay [2] concerns the target T1, human PD-L1 on cells. The experiment in a line: competition flow cytometry on SK-MEL-28 cells; probe: 100 nM hPD-1/streptavidin-Alexa Fluor 647 tetramer.
For assay [3], the target named is T2, recombinant biotinylated human PD-L1 ectodomain (IgV and IgC domains, […]) (human, enzymatically biotinylated (BirA) on the biotin acceptor peptide).
T2 construct: also called biotinylated hPD-L1; biotinylated PD-L1; not shown: carboxy-terminal 8x histidine tag
The experiment in a line: surface plasmon resonance, biotinylated hPD-L1 immobilized on a streptavidin chip; column head 'PD-L1 affinity'. A general note: SPR reads the build-up and loss of mass on a sensor chip optically.

In assay [4] the target is T2, recombinant biotinylated human PD-L1 …. As to the kind of experiment: SPR, biotinylated PD-L1 on streptavidin chip.
The target is the same in assay [5]. As to the kind of experiment: surface plasmon resonance, biotinylated hPD-L1 immobilized on a streptavidin chip; column head 'PD-L1 affinity'. The source holds these as a separate data set.

B1: DOTA-HAC (HAC-V N91C conjugated with maleimido-mono-amide-DOTA) (designed binder)
chain: DSPDRPWNPPTFSPALLVVTEGDNATFTCSFSNTSESFHVVWHRESPSGQTDTLAAFPEDRSQPGQDARFRVTQLPNGRDFHMSVVRARRCDSGTYVCGVISLAPKIQIKESLRAELRVTERHHHHHHHH
modifications: maleimido-mono-amide-DOTA on Cys 91 (N91C)
notes: also called HAC-DOTA
Turning to B1, the “fold more potent antagonism than WT PD-1” value with human PD-L1 on cells [1] was 1200 fold. For the same molecule, the “IC50 (read off the curve)” value with human PD-L1 on cells [2] was about 8 nM.

B2: HAC-I PD-1 (High affinity consensus with isoleucine at position 41) (designed binder)
chain: B1 chain with V41I, C91N
notes: Engineered variant of the human PD-1 IgV domain; monomeric; also called HAC-PD-1
As a reminder, the Kd is a measure of binding affinity in units of concentration. As for B2, the dissociation constant (Kd) in assay [3] and in assay [5] was 0.107 nM in each case. In addition, the dissociation half-life in assay [4] amounted to 42.4 min.

B3: G2 4-3 (designed binder)
PD-1 variant IgV domain: DSPDRPWNPPTFSPALLVVTEGDNATFTCSFSNTSESFHVIWHLESPSGQTDTLAAFPEDRSQPGQDARFRVTQLPNGRDFHMSVVRARRNDSGTYVCGVISLAPKIQIKESLRAELRVTER
notes: also called Generation 2, clone 4-3
In the case of B3, the dissociation constant Kd in assay [3] and in assay [5] was 0.101 nM throughout.
